For four substances, solubility results are on record in paper PMC7700221, “Antiproliferative Homoleptic and Heteroleptic Phosphino Silver(I) Complexes: Effect of Ligand Combination on Their Biological Mechanism of Action” (Molecules, 2020).

This data set in a line: Solubility as observed. In kind it is physicochemical.
Turning to [Ag(PTA)4]BF4 [Compound 6], the solubility entry is “water soluble”.
For [Ag(DAPTA)4]BF4 [Compound 7], the solubility result is “water-soluble”.
In the case of [HB(pz)3]Ag(PCN) [Compound 4], the solubility entry is listed as “low solubility in CHCl3”.
Take [HB(pz)3]Ag(PTA-SO2) [Compound 3]: the solubility entry was “low solubility”.
